The experiment has as its target T1, ATPase family AAA domain-containing protein 2 (Homo sapiens, UniProt Q6PL18).
T1 sequence (Q6PL18 whole entry): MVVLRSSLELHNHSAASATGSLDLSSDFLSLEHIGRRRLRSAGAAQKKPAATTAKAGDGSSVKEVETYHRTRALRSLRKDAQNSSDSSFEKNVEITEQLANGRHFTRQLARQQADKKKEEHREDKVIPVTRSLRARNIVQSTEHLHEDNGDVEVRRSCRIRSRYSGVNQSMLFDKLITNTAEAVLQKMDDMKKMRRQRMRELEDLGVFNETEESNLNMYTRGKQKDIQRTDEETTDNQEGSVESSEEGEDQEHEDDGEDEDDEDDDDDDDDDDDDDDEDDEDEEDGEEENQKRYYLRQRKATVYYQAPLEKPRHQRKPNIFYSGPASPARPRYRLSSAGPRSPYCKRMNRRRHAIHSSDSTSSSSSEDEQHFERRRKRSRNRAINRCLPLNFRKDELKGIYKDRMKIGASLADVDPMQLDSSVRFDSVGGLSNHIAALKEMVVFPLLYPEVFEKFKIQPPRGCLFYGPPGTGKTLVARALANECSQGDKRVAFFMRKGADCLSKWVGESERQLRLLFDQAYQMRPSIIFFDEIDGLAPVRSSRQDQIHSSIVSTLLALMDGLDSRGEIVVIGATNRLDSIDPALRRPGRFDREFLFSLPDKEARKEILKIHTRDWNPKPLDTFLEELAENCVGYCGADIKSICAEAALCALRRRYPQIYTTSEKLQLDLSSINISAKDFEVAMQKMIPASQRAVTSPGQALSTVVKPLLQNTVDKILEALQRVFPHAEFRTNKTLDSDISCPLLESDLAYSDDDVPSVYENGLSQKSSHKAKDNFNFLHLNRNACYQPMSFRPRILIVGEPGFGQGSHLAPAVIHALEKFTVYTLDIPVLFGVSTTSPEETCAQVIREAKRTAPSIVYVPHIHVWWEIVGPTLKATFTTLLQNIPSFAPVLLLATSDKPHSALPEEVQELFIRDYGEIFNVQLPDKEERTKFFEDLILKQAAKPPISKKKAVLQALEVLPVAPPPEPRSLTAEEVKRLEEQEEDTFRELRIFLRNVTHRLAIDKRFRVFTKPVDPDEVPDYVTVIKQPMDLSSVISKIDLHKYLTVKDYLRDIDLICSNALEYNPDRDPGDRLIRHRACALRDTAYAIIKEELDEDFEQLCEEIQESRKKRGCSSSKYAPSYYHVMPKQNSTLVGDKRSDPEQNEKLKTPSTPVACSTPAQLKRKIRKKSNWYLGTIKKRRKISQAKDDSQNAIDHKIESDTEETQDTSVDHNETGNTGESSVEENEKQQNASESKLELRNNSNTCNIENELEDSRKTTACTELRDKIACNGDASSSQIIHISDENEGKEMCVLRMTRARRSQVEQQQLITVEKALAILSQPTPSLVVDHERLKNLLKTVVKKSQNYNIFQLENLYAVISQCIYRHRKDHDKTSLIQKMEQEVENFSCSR
The experiment can be described thus: Binding affinity to N-terminal GST tagged human ATAD2 expressed in Escherichia coli by ITC analysis. On the technique in general: ITC needs no label: the signal is the heat of the interaction.

With `Cc1cncc(-c2ccc(N[C@@H]3CCNC[C@H]3OCC3CCS(=O)(=O)CC3)c3[nH]c(=O)c(C)cc23)c1`, the equilibrium dissociation constant (Kd) (usually the free concentration of one partner at which half of the binding sites on the other are occupied at equilibrium, for simple one-to-one binding) was determined as 0.09 µM.
